Activation (cAMP increase) data for 94 compounds are collected here from PubChem BioAssay AID624287 (National Center for Advancing Translational Sciences (NCATS), 2012).

Molecules are shown by their SMILES. Only a part is listed here, and it is no random draw. Inconclusive results are not listed. Calls of active or inactive are those of the source. The call rests on the fitted dose curve; in most records, active means well fitted activation curve with a large enough effect; inconclusive means small, poorly fitted or top-dose-only effect, or another doubt; inactive means no such curve, though single readings can be large or run the other way; cell line not stated here.

The nature of the assay: qHTS for Agonist of gsp, the Etiologic Mutation Responsible for Fibrous Dysplasia/McCune-Albright Syndrome: qHTS.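 Further: phosphodiesterase inhibitor Ro 20-1724 added with compounds to block cAMP breakdown; nearly all actives have a fitted effect of over 60% in size.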 The settings on record: gsp mutant cells, cAMP HTRF, 30 min; at 76.9 µM (top of the series) unless noted.
With `COc1ccccc1CNC(=O)COC(=O)C(O)(c1ccccc1)c1ccccc1`, the activation (cAMP increase) was inactive: -4.9%.
For the compound `O=[N+]([O-])c1cc([N+](=O)[O-])c(-c2cnn(-c3ccccc3)c2)c([N+](=O)[O-])c1`, the activation (cAMP increase) is inactive: 0.348% [at 15.4 µM].
Next, `CC1(CBr)Cn2c(nc3ccccc3c2=O)S1` (centres undefined): inactive: 8.34%; `CC(C)/C=N\N=C(\N)N[N+](=O)[O-]`: inactive: -0.0269% [at 15.4 µM]; `CCOP(=O)(Nc1ccc(C)cn1)OCC`: inactive: 1.32%.
With `CCOP(=O)(NC(=NC(C)c1ccccc1)NC(C)c1ccccc1)OCC` (centres undefined), the activation (cAMP increase) is inactive: -35.1%.
Next, `O=C(O)C(O)c1ccc(N(CCCl)CCCl)cc1.c1ccncc1` (centres undefined): inactive: -32.3%.
As for `CCC1=CC2Cc3nc4ccc(Cl)cc4c(N)c3C(C1)C2` (centres undefined), the activation (cAMP increase) was inactive: 16.4%.
With `O=P1(Nc2ccccn2)COc2ccccc2OC1`, the activation (cAMP increase) was inactive: -6.04%.
In the case of `CC(C)(C)C(=O)NC(Sc1ncccn1)C(Cl)(Cl)Cl` (centres undefined), the activation (cAMP increase) was inactive: -35.6%.
For the compound `Clc1n[nH]nc1-c1nn[nH][15n]1`, the activation (cAMP increase) was inactive: 26%.
`O=P1(N(CCCl)CCCl)NCCC(C(F)(F)F)O1` (centres undefined): the activation (cAMP increase) was inactive: 17.7%.
As for `O=P1(Nc2ncccn2)COc2ccccc2OC1`, the activation (cAMP increase) is inactive: -4.34%.
Take `CN1CCCCC1COC(=O)C1(O)c2ccccc2CCc2ccccc21` (centres undefined): the activation (cAMP increase) was inactive: -0.546%.
For the compound `COc1ccccc1OP(C)(=O)Nc1c(C)cccc1C` (centres undefined), the activation (cAMP increase) was inactive: -14.3%.
On to `NS(=O)(=O)c1cccc(NC(=O)COC(=O)C(O)(c2ccccc2)c2ccccc2)c1`, for which the activation (cAMP increase) is inactive: 28.1%.
As for `O=P1(Nc2ccc(Br)cn2)COc2ccccc2OC1`, the activation (cAMP increase) is inactive: 33%.
On to `Cc1ccc(OCC(=O)OC2CN3CCC2CC3)cc1` (centres undefined), for which the activation (cAMP increase) is inactive: -57.4%.
As for `Nc1cccc([As](=O)(O)c2ccccc2)c1`, the activation (cAMP increase) was inactive: 0.382%.
With `CP(=O)(Nc1ccc(SC(F)(F)F)cc1)Oc1ccccc1` (centres undefined), the activation (cAMP increase) is inactive: -0.594% [at 15.4 µM].
In the case of `CCCOc1ccc(NP(C)(=O)Oc2ccc(Cl)cc2)cc1` (centres undefined), the activation (cAMP increase) was inactive: 20.7% [at 15.4 µM].
Regarding `COc1cc(C2NCCC3(OCCO3)C2(C)C)cc(OC)c1OC.O=[N+]([O-])c1cc([N+](=O)[O-])c(O)c([N+](=O)[O-])c1` (centres undefined), the activation (cAMP increase) is inactive: -24.5%.
Next, `Cc1ccc(C(=O)OC2CN3CCC2CC3)cc1` (centres undefined): inactive: -36.2%; `CC1CCC(C(C)C)C(OP(=O)(Nc2ccccn2)c2ccccc2)C1` (centres undefined): inactive: 0.947% [at 15.4 µM].
Next, `Cc1nn(-c2ccccc2)c2c1P(=O)(N1CCOCC1)N(C)C(c1ccccc1)=N2` (centres undefined): inactive: 6.9%; `CCCC1OP(=O)(Nc2ccccc2)OCC1CC` (centres undefined): inactive: -14.6%.
Next, `O=C(/C=C/c1ccccc1)OC1CN2CCC1CC2` (centres undefined): inactive: 12.5% [at 15.4 µM].
Turning to `CN(C)C1(CNC(=O)c2ccc(S(C)(=O)=O)cc2)CCCCC1`, the activation (cAMP increase) was inactive: -26.8% [at 15.4 µM].
Take `CC1=NCCc2c1[nH]c1ccccc21.O=[N+]([O-])c1cc([N+](=O)[O-])c(O)c([N+](=O)[O-])c1`: the activation (cAMP increase) was inactive: -0.572%.
Regarding `CN(C)C(=O)c1cc([N+](=O)[O-])cc2c1-c1c(cc([N+](=O)[O-])cc1[N+](=O)[O-])C2=O`, the activation (cAMP increase) is inactive: 19.5%.
With `O=[N+]([O-])c1ccc2c(c1)nnn2O`, the activation (cAMP increase) was inactive: -41%.
As to `CCOP1(=S)c2c(C)nn(CCC#N)c2N=C(c2ccc(F)cc2)N1C` (centres undefined), the activation (cAMP increase) is inactive: -4.84%.
Regarding `N#CCCN(C(=O)COC(=O)C(O)(c1ccccc1)c1ccccc1)c1ccc(F)cc1`, the activation (cAMP increase) was inactive: -25.1%.
Consider `CS(=O)(=O)c1cc([N+](=O)[O-])c2no[n+]([O-])c2c1`, for which the activation (cAMP increase) is inactive: 3.51%.
With `O=P(Nc1nccs1)(Oc1ccccc1)Oc1ccccc1`, the activation (cAMP increase) was inactive: -25.5%.
Turning to `CCOP1(=S)c2c(C)nn(CCC#N)c2N=C(c2ccccc2F)N1C` (centres undefined), the activation (cAMP increase) was inactive: 24.6%.
Take `O=C(O)COc1ccc([As](=O)(O)O)cc1[N+](=O)[O-]`: the activation (cAMP increase) was inactive: 2.43%.
For `Nc1ccccc1[As](=O)(O)c1ccccc1`, the activation (cAMP increase) is inactive: -11.1% [at 15.4 µM].
On to `CCCOP(=S)(Nc1nc(N)cc(=O)[nH]1)OCCC`, for which the activation (cAMP increase) is inactive: -15.7%.
Turning to `Cc1ccc(C)c(NP(C)(=O)Oc2ccccc2)c1` (centres undefined), the activation (cAMP increase) was inactive: 11.3%.
Next, `Cc1ccc(NCCc2c([N+](=O)[O-])cc([N+](=O)[O-])cc2[N+](=O)[O-])cc1`: inactive: -16.4%; `CP(=O)(Nc1cccc(Br)c1)Oc1ccccc1` (centres undefined): inactive: 22.4%; `Cc1cc(C)cc(OP(C)(=O)Nc2ccccn2)c1` (centres undefined): inactive: 1.42%.
For `CCOP(=O)(Nc1cccc2ccccc12)OCC`, the activation (cAMP increase) was inactive: -27.5%.
On to `COc1ccccc1OP(C)(=O)Nc1cccc(Br)c1` (centres undefined), for which the activation (cAMP increase) was inactive: -3.13%.
Regarding `COc1cc(C(=O)NCC2(N3CCOCC3)CCCCC2)cc(Cl)c1OC(C)C`, the activation (cAMP increase) is inactive: 22.1% [at 15.4 µM].
Consider `O=C(OC1CN2CCC1CC2)c1ccc(Cl)cc1` (centres undefined), for which the activation (cAMP increase) was inactive: -35.5%.
As for `CCOC(=O)c1ccc(NP(C)(=O)Oc2cc(C)cc(C)c2)cc1` (centres undefined), the activation (cAMP increase) was inactive: -8.55%.
Next, `Cc1cc(C)cc(OP(C)(=O)Nc2ccc(C)cc2C)c1` (centres undefined): inactive: -22.1%; `O=[As](O)(c1cccc(O)c1)c1cccc(O)c1`: inactive: -0.618%; `Cc1cccc(OCC(=O)OC2CN3CCC2CC3)c1` (centres undefined): inactive: 0%.
Next, `COc1ccc(N/C(=N/P(=O)(N2CCOCC2)N2CCOCC2)N2CCOCC2)cc1`: inactive: -1.27% [at 15.4 µM]; `O=[N+]([O-])c1cc(Oc2ccc([N+](=O)[O-])cc2C(F)(F)F)cc([N+](=O)[O-])c1`: inactive: -1.21%.
As to `Cc1cc(=O)[nH]c(N[N+](=O)[O-])n1`, the activation (cAMP increase) is inactive: -18.2%.
Consider `CCN(CC)CCCOC(=O)C(O)(c1ccccc1)c1ccccc1`, for which the activation (cAMP increase) is inactive: -23.1%.
Consider `O=C(OC1CN2CCC1CC2)C12CC3CC(CC(C3)C1)C2` (centres undefined), for which the activation (cAMP increase) was inactive: 5.07%.
For `Cc1c2c(nc3ccccc13)SC(C(Cl)Cl)C2` (centres undefined), the activation (cAMP increase) was inactive: 24.6%.
Consider `COc1cc(I)ccc1[As](=O)(O)O`, for which the activation (cAMP increase) is inactive: 0.883% [at 15.4 µM].
Turning to `COc1ccc2nc(NP(=O)(c3ccccc3)c3ccccc3)sc2c1`, the activation (cAMP increase) was inactive: 16.5%.
As for `Cc1ccc(S(=O)(=O)NCCCCC(NC(=O)OC(C)(C)C)C(=O)O)cc1.c1ccc(Nc2ccccc2)cc1` (centres undefined), the activation (cAMP increase) was inactive: 5.34%.
For `O=P1(N(CCCl)CCCl)OCCCN1CCCl` (centres undefined), the activation (cAMP increase) is inactive: -2.67%.
As for `O=P1(N(CCCl)CCCl)Nc2ccccc2N1`, the activation (cAMP increase) was inactive: -32.9%.
Regarding `Cc1ccc(NP(C)(=O)Oc2ccccc2)c(C)c1` (centres undefined), the activation (cAMP increase) is inactive: 25.8%.
Consider `COC(=O)C1(C)COP(=O)(N2CCCCCC2)OC1` (centres undefined), for which the activation (cAMP increase) was inactive: -42.7%.
For `COc1ccccc1OP(C)(=O)Nc1ccc(C)cc1` (centres undefined), the activation (cAMP increase) is inactive: -30.9%.
For the compound `ClCCSc1nnc(-c2cccnc2)o1`, the activation (cAMP increase) was inactive: -2.27%.
Take `CCOC(=O)c1ccc(NP(C)(=O)Oc2ccccc2)cc1` (centres undefined): the activation (cAMP increase) is inactive: -0.57%.
In the case of `Cc1cc(C)cc(OP(C)(N)=O)c1` (centres undefined), the activation (cAMP increase) was inactive: 0.96% [at 15.4 µM].
As for `O=[N+]([O-])c1cc([N+](=O)[O-])c(-c2ccn[nH]2)s1`, the activation (cAMP increase) is inactive: -1.91%.
On to `COc1ccc(OP(C)(=O)Nc2cccc(F)c2)cc1` (centres undefined), for which the activation (cAMP increase) was inactive: -23.5%.
For `CCN(CC)C(=S)SC(NC=O)C(Cl)(Cl)Cl` (centres undefined), the activation (cAMP increase) is inactive: -2.37%.
Turning to `O=C(OC1CN2CCC1CC2)c1cccc2[nH]cnc12` (centres undefined), the activation (cAMP increase) was inactive: 15.3% [at 15.4 µM].
`CC(C)NC(=O)NP(=O)(Oc1ccccc1)Oc1ccccc1`: the activation (cAMP increase) is inactive: -2.42% [at 15.4 µM].
Next, `COc1ccccc1OP(C)(=O)Nc1cc(Cl)ccc1C` (centres undefined): inactive: -32.4% [at 15.4 µM]; `COc1cc(C(=O)NCC2(N3CCOCC3)CCCCC2)ccc1OCC(C)C`: inactive: 0.561%.
`O=[N+]([O-])c1ccc(-c2cc([N+](=O)[O-])c(O)c([N+](=O)[O-])c2)cc1`: the activation (cAMP increase) is inactive: 6.57% [at 15.4 µM].
With `O=[As](O)(c1ccc(O)cc1)c1ccccc1O`, the activation (cAMP increase) is inactive: 0.0291% [at 15.4 µM].
Consider `C[As](=O)(O)c1cccc(C(=O)O)c1`, for which the activation (cAMP increase) is inactive: 16.8%.
As for `Cc1ccc2nc3c(c(C)c2c1)CC(C(Cl)Cl)S3` (centres undefined), the activation (cAMP increase) was inactive: -4.2% [at 15.4 µM].
Next, `O=[N+]([O-])c1ccc2c(c1)C=Nc1ccccc1O2`: inactive: 10.6%.
Turning to `Cc1cccc(C)c1OP(C)(N)=O` (centres undefined), the activation (cAMP increase) is inactive: 0.475% [at 15.4 µM].
With `CC(C)(C)c1ccc(OP(C)(=O)Nc2ccc(SC(F)(F)F)cc2)cc1` (centres undefined), the activation (cAMP increase) was inactive: -16.7%.
Consider `Cc1ccc(OP(=O)(Nc2ccc([N+](=O)[O-])cn2)Oc2ccc(C)cc2)cc1`, for which the activation (cAMP increase) is inactive: -20.7%.
For `CCOC(=O)Nc1cccc([As](=O)(O)O)c1`, the activation (cAMP increase) was inactive: -14.5%.
Regarding `CP(=S)(Nn1cnnc1)Oc1ccccc1` (centres undefined), the activation (cAMP increase) is inactive: -5.12%.
Turning to `O=[N+]([O-])c1ccc(Nc2ccc(Oc3ccc([N+](=O)[O-])cc3[N+](=O)[O-])cc2)c([N+](=O)[O-])c1`, the activation (cAMP increase) is inactive: 29.5%.
As to `CP(=O)(Nc1ccccc1Br)Oc1ccccc1` (centres undefined), the activation (cAMP increase) was inactive: -3.64% [at 15.4 µM].
As for `COc1ccccc1OP(C)(=O)Nc1ccccc1` (centres undefined), the activation (cAMP increase) is inactive: 0.217% [at 15.4 µM].
Next, `Cc1cc(SC(NC=O)C(Cl)(Cl)Cl)ncn1` (centres undefined): inactive: -0.103% [at 15.4 µM]; `O=P(Nc1ccccn1)(c1cccc2ccccc12)c1cccc2ccccc12`: inactive: -23.6%.
Take `CC1CCNP(=O)(N(CCCl)CCCl)O1` (centres undefined): the activation (cAMP increase) was inactive: 15.4% [at 15.4 µM].
Turning to `CCOC(=O)Nc1ccc([As](=O)(O)O)c(O)c1`, the activation (cAMP increase) was inactive: 19.3%.
As to `Cc1cc(SC(NC(=O)c2ccccc2)C(Cl)(Cl)Cl)nc(C(C)C)n1` (centres undefined), the activation (cAMP increase) is inactive: -23.7%.
As for `CCCCOc1ccc(C(=O)NCC2(N3CCCCC3)CCCCC2)cc1OC`, the activation (cAMP increase) was inactive: -4.62% [at 15.4 µM].
